Measurements from patent US20260183363A1, “INHIBITION OF LUTEINIZING HORMONE (LH) ACTION AS TREATMENT OF PERIMENOPAUSAL AND POSTMENOPAUSAL SYMPTOMS AND COMPLICATIONS” (RIGSHOSPITALET, priority 2022, published 2026).

What was measured:
TERT cells = experiment: UCP1 and DIO2 expression in adipocytes after LH or hCG; format: cell-based, human; conditions: 48 hours exposure, two doses, compared with vehicle
Protocol: The human-derived adipocyte-cell-models used were: hMADS (from a subcutaneous depot), human Simpson-Golabi-Behmel syndrome (SGBS) preadipocyte cell strain, and TERT-hWA (from a subcutaneous neck depot). They were propagated and differentiated as briefly described here: All cells were cultured until two days post-confluence (designated day 0) where they were induced to differentiate in advanced DMEM/F12 supplemented with 2% fetal bovine serum (FBS) (Life Technologies), L-glutamine (2 mM) (Life Technologies), penicillin (62.5 μg/mL), streptomycin (100 μg/mL) Sigma-Aldrich), insulin (5 ug/mL) (Roche), examethasone (1 μM) (Sigma-Aldrich), 3-isobutyl-1-methylxanthine (0.5 mM) (Sigma-Aldrich), rosiglitazone (1 μM) (Cayman Chemical), human cortisol (1 μM) (Sigma-Aldrich) and T3 (1 nM) (Sigma-Aldrich). At day 3, the medium was refreshed with the same medium used at day 0. At day 6 and 9, the cells received Advanced DMEM/F12 supplemented with 2% FBS. At day 12, the adipocytes were defined as mature, and the percentage of differentiated cells was 50-70% based on microscopic inspection irrespective of cell model. RNA was extracted for cDNA synthesis from undifferentiated (designated day 0) and differentiated (day 12) cells and PCR was conducted using specific primers. All analyses were analyzed with student t-test or ANOVA using the corresponding control/baseline as reference value. Every p-value presented was adjusted for multiple comparisons with Dunnett's post hoc test.

human kidney tissue = experiment: Ex vivo culture of human kidney tissue, qRT-PCR gene expression; format: cell-based; conditions: 3 or 24 hours culture
Protocol: Human kidney tissues from 5 adults (4 men, 1 […]) were cultured. All donors underwent partial nephrectomy due to suspected malignant kidney tumors and a pathologist removed tissues outside the malignant area. Kidney specimens were dissected in small pieces 1 mm^3 and cultured for either 3 or 24 hours in a hanging drop ex vivo model. Tissues were treated with either vehicle (media containing DMEM, insulin-transferrin-selenium, penicillin, streptomycin and 10% fetal bovine serum) or media also containing one of the following: PTH (0.01 pg/mL), LH (1 IU/mL), hCG (1 IU/mL), estradiol (1 nmol/L) or testosterone (50 nmol/L) and subsequently stored at −80° C. for subsequent RNA purification and cDNA synthesis.
Gene expression profiling was done by qRT-PCR analyzing levels of calcium transporters SLC12A-1, SLC12A-2, TRPV5 as well as calcium-sensing receptor (CASR). The inventors also measured kidney expression of exon 2-4 and 11 of LHCGR using a primer-sequence previously validated by sequencing of the product from both serum and testis tissue. As calcium transporters are differentially expressed in the different parts of the nephron, all samples were standardized according to the expression of Uromodulin (UMOD), a protein located in the thick ascending limb of the loop of Henle and subsequently to MAP3K7 expressed in the distal convoluted tubules and in addition to being standardized to the housekeeping gene, RPS20. Ethical committee approval: H-17004362. All samples were analyzed with ANOVA with control/baseline as reference value and every p-value presented was adjusted for multiple comparisons with Dunnett's post hoc test.

white adipocytes = experiment: RNA seq of white adipocytes exposed to LH; format: cell-based, human
Source text: (§1) The human-derived adipocyte-cell-models used were: hBa (from a subcutaneous depot), human Simpson-Golabi-Behmel syndrome (SGBS) preadipocyte cell strain, and TERT-hWA (from a subcutaneous neck depot). They were propagated and differentiated as described in Example 5.
(§2) Brown adipocytes were exposed to different dosages of LH and hCG with and without sex steroids in the media and compared with the vehicle samples. RNA was extracted for cDNA synthesis and RNA seq (core facility and Bioinformatics assistance from CPH University) was performed supported by PCR using specific primers. All analyses were analyzed with t-test or ANOVA using the corresponding control/baseline as reference value and every p-value presented was adjusted for multiple comparisons with Dunnett's post hoc test.

[1] = tested on: male wild type mice (C57BL/6); experiment: Mice treated with LH, cinacalcet or hCG for 10 days; format: in vivo
Protocol: Eight weeks old male wild type mice (C57BL/6), caged at Biotest Facility, Trige, Denmark, were treated for 10 days with either: • vehicle (n=12; NaCl 0.9%×1 daily s.c.); • Cinacalcet (n=8; 30 mg/kg, ×1 daily), (Cinacalcet is in a class of medications called calcimimetics which works by signaling the body to produce less parathyroid hormone (PTH) in order to decrease the amount of calcium in the blood); • LH (n=8; 66.7 IU/kg×1 daily s.c.); • LH in combination with Cinacalcet (n=8; 66.7 IU/kg×1 daily s.c+cinacalcet orally 30 mg/kg once daily); or • hCG (n=8; 666.7 IU/kg, every other day, i.p.).
At termination, blood and urine sampling was performed, animals were sacrificed and body weight was assessed. Serum PTH was measured using commercially available ELISA kit Mouse PTH 1-84 from Immutopics. Plasma and urinary calcium and creatinine was measured using Stanbio LiquiColor (Arzenazo III) product numbers 0155 and 0430, respectively. All analyses of mice serum, urine, and organ weight were analyzed with ANOVA with control/baseline as reference value. Each p-value presented was adjusted for multiple comparisons with Dunnett's post hoc test.

[2] = tested on: male wild type mice (C57BL/6); experiment: Brown fat mass in mice treated with LH or hCG for 10 days; format: in vivo; conditions: high and repeated dosing
Protocol: Eight weeks old male wild type mice (C57BL/6) caged at Biotest Facility, Trige, Denmark, were treated for 10 days with either vehicle (n=12; NaCl 0.9%×1 daily s.c.), LH (n=8; 66.7 IU/kg×1 daily s.c.), or hCG (n=8; 666.7 IU/kg, every other day, i.p.). At termination, blood and fat sampling was performed, animals were sacrificed and body weight was assessed. Danish Animal Experiments Inspectorate License no. 2019-15-0201-00236. All analyses of mice serum, urine, and organ weight were analyzed with ANOVA with control/baseline as reference value and every p-value presented was adjusted for multiple comparisons with Dunnett's post hoc test.

brown adipocytes = experiment: RNA seq of brown adipocytes exposed to LH; format: cell-based, human
Source text: as §1, §2

Substance: LH: Luteinizing hormone, heterodimeric glycoprotein hormone produced by gonadotropic cells in the anterior pituitary gland; LHCGR agonist
- DIO2 expression (TERT cells): downregulated
- UCP1 expression (TERT cells): downregulated
- expression levels of CASR and calcium transporters SLC12A-1, SLC12A-2, SLC12A-3 (human kidney tissue): no transcriptional changes
- Aerobic electron transport chain: Direction (white adipocytes; LH vs vehicle): Down
- Aerobic electron transport chain: Number of genes (white adipocytes; LH vs vehicle): 172
- Aerobic respiration: Direction (white adipocytes; LH vs vehicle): Down
- Aerobic respiration: Number of genes (white adipocytes; LH vs vehicle): 172
- Fatty acid beta-oxidation: Direction (white adipocytes; LH vs vehicle): Down
- Fatty acid beta-oxidation: Number of genes (white adipocytes; LH vs vehicle): 73
- Fatty acid catabolic process: Direction (white adipocytes; LH vs vehicle): Down
- Fatty acid catabolic process: Number of genes (white adipocytes; LH vs vehicle): 97
- Fatty acid oxidation: Direction (white adipocytes; LH vs vehicle): Down
- Fatty acid oxidation: Number of genes (white adipocytes; LH vs vehicle): 95
- Lipid oxidation: Direction (white adipocytes; LH vs vehicle): Down
- Lipid oxidation: Number of genes (white adipocytes; LH vs vehicle): 97
- Mitochondrial ATP synthesis coupled electron transport: Direction (white adipocytes; LH vs vehicle): Down
- Mitochondrial ATP synthesis coupled electron transport: Number of genes (white adipocytes; LH vs vehicle): 85
- Mitochondrial electron transport, NADH to ubiquinone: Direction (white adipocytes; LH vs vehicle): Down
- Mitochondrial electron transport, NADH to ubiquinone: Number of genes (white adipocytes; LH vs vehicle): 49
- Mitochondrial respiratory chain complex assembly: Direction (white adipocytes; LH vs vehicle): Down
- Mitochondrial respiratory chain complex assembly: Number of genes (white adipocytes; LH vs vehicle): 94
- Oxidative phosphorylation: Direction (white adipocytes; LH vs vehicle): Down
- Oxidative phosphorylation: Number of genes (white adipocytes; LH vs vehicle): 127
- Positive regulation of cold-induced thermogenesis: Direction (white adipocytes; LH vs vehicle): Down
- Positive regulation of cold-induced thermogenesis: Number of genes (white adipocytes; LH vs vehicle): 78
- Positive regulation of fatty acid transport: Direction (white adipocytes; LH vs vehicle): Up
- Positive regulation of fatty acid transport: Number of genes (white adipocytes; LH vs vehicle): 18
- Prostaglandin secretion: Direction (white adipocytes; LH vs vehicle): Up
- Prostaglandin secretion: Number of genes (white adipocytes; LH vs vehicle): 13
- Regulation of prostaglandin secretion: Direction (white adipocytes; LH vs vehicle): Up
- Regulation of prostaglandin secretion: Number of genes (white adipocytes; LH vs vehicle): 11
- Respiratory electron transport chain: Direction (white adipocytes; LH vs vehicle): Down
- Respiratory electron transport chain: Number of genes (white adipocytes; LH vs vehicle): 105
- Thyroid hormone metabolic process: Direction (white adipocytes; LH vs vehicle): Up
- Thyroid hormone metabolic process: Number of genes (white adipocytes; LH vs vehicle): 16
- genes directly influenced (white adipocytes; white and brown cells): more than 400 genes
- cold-induced thermogenesis (white adipocytes; white fat cells exposed to high LH): suppressed
- Bodyweight compared with vehicle-treated mice ([1]; 10 days): borderline higher
- Urinary creatinine ([1]; 10 days): neither LH+cinacalcet-treated nor LH-treated mice were affected
- kidney size compared with vehicle ([1]; 10 days, before and after adjusting for body weight): significantly lower kidney size
- serum PTH levels ([1]; 10 days, vehicle 1.0): 9.2 pmol/L
- urinary calcium excretion ([1]; after 10 days of treatment, vehicle 0.54): 0.98 mmol/L
- brown fat mass [2]: reduced brown fat mass significantly
- Positive regulation of fatty acid transport: Direction (brown adipocytes; LH vs vehicle): Up
- Positive regulation of fatty acid transport: Number of genes (brown adipocytes; LH vs vehicle): 18
- Response to cold: Direction (brown adipocytes; LH vs vehicle): Down
- Response to cold: Number of genes (brown adipocytes; LH vs vehicle): 44
- Response to fatty acid: Direction (brown adipocytes; LH vs vehicle): Down
- Response to fatty acid: Number of genes (brown adipocytes; LH vs vehicle): 51
- cold-induced thermogenesis (brown adipocytes; brown fat cells exposed to high LH): suppressed
